Target: T1, CCK B (Mus musculus, UniProt P56481)
T1 construct: from tissue; host or cells: cerebral cortex membranes of male CFLP mice
T1 sequence (P56481 1-453): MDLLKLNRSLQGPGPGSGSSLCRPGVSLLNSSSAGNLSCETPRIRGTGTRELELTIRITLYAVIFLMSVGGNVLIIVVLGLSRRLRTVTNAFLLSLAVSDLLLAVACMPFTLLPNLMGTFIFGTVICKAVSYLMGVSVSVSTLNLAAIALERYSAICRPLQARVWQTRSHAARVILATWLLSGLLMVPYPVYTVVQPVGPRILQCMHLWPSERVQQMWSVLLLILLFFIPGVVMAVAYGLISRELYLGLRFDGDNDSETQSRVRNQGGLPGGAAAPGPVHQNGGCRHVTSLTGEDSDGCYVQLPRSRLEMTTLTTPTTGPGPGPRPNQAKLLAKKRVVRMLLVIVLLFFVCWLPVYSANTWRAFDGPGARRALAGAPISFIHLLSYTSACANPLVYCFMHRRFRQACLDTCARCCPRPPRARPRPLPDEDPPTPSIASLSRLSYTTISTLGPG
Experiment: CCK receptor binding screening test, displacement of tritiated-pentagastrin from mouse cerebral cortical membranes
Conditions: Ki by Cheng-Prusoff; 2 nM tritiated-pentagastrin; mouse cerebral cortex membranes; read-out: Binding Affinity CCK B
Method: The biological activity of compounds of the present invention was evaluated employing an initial screening test which rapidly and accurately measured the binding of the tested compound to known CCK receptor sites. […] (See Hays et al, Neuropeptides 1:53-62, 1980; and Satuer et al, Science 208:1155-1156, 1980.
In this screening test, the cerebral cortices taken from male CFLP mice weighing between 30-40 g were dissected on ice, weighed, and homogenized in 10 volumes of 50 mM Tris-HCl buffer (pH 7.4 at 0°-4° C.). The resulting suspension was centrifuged, the supernate was discarded, and the pellet was washed by resuspension in Tris-HCl buffer followed by recentrifugation. […]
Following incubation, radioactivity bound to membranes was separated from that free in solution by rapid filtration through Whatman GF/B filters and washed three times with 4 mL of ice cold Tris-HCl buffer. Filters from samples incubated with tritiated-pentagastrin were placed in polyethylene vials with 4 mL of scintillation cocktail, and the radioactivity was estimated by liquid scintillation spectrometry (efficiency 47-52%). […]
In displacement experiments, inhibition curves were analyzed by either logit-log plots or the iterative curve fitting computer program ALLFIT (DeLean, Munson and Redbard, 1978) to provide estimates of the IC50 and nH (apparent Hill coefficient) values). […]

**Q.** For “Methyl N-[α-methyl-N-[(tricyclo[3.3.1.1^3,7 ]dec-2-yloxy)carbonyl]]-D-tryptophyl]-β-methionine [Example 10]”, which Ki is on record?
**A.** 0.041 µM

Reference: patent publication US5574013A (Warner-Lambert Company, priority 1993, dated 1996)
